Reference: patent publication US20110300558A1

Key:
Streptavidin [1] = target: Streptavidin (UniProt P22629); assay: europium-loaded BCCP-ferritin particles on streptavidin-coated 96 well plates, time-resolved fluorescence of the europium inside ferritin; control reaction with 0.001 mM soluble biotin
Streptavidin [2] = target: Streptavidin (UniProt P22629); assay: multiwell plate assay (Example 4) with Eu-labelled streptavidin as label, time-resolved fluorescence; reference is ferritin particles without binding molecule

fold signal as compared to control (excess soluble biotin) (Streptavidin [1]): 163 fold
fold signal as compared to particles produced with pET-26(+)rHuLFt (Streptavidin [2]): 326 fold
Substance: Ferritin based particles expressing BCCP (Biotin Carboxyl Carrier Peptide) on their surface (BCCP-Human ferritin light chain fusion protein, plasmid pBccpHFl) (from UniProt P0ABD8 70-156; P02792 1-175)
